System: OVCAR-3 human ovarian cancer cells (missense R248G)
Assay: cells

`COc1cccc2c1C(=O)c1c(O)c3c(c(O)c1C2=O)C[C@@](O)(C(=O)CO)C[C@@H]3O[C@H]1C[C@H](N)[C@H](O)[C@H](C)O1` [doxorubicin] showed an EC50 (OVCAR-3, OVCAR-3 cells with MBO-asGCS treatment) of 90 nM and an EC50 (OVCAR-3, OVCAR-3 cells without MBO-asGCS treatment) of 750 nM.

From patent US20170216329A1, “Ceramide-Rubusoside Nanomicelles and Their Use in Cancer Therapy” (Board of Supervisors of Louisiana State University and …, priority 2014, published 2017)
